Compound activity from PubChem BioAssay.
ALR H2O2 inh = inhibitors of human sulfhydryl oxidase ALR; AID 485317; inhibition, % (no concentration beside the values); purified ALR, DTT oxidation, H2O2 HRP-luminol luminescence; hit rate 3.8% among 290,000;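 active means mean and each replicate at 75% or more; inconclusive means only one of the two met; inactive means neither met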;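 further: stock transfer was 7.5 nL into about 7.5 µL; 0% = neutral wells and 100% = wells with inactivated enzyme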
NALP1 inh = NALP1 inflammasome inhibitors in reconstituted yeast, colorimetric, S. cerevisiae, triplicate retest; S. cerevisiae NALP1/ASC/caspase-1 growth, X-gal OD620, 72 h; inhibition, % at 10 µM; hit rate 0.61% among 280,000; in the data active means inhibition mostly above about 24%, no sharp cut-off; inactive means mostly below about 32%
HDAC3 inhib = HDAC3 deacetylase inhibitors, primary screen, biochemical, fluorescence, cell-free homogeneous; recombinant HDAC3, fluorogenic peptide/trypsin coupled; AID 2718, 2010; Histone deacetylase 3 (Homo sapiens), O15379; hit rate 0.15% among 320,000; inhibition, % at 8.3 µM; in the data active means inhibition above about 26%, passing the limit was not always enough
MC4R ag barr = MC4R agonists recruiting beta-arrestin, primary screen, cell-based, luminescence, agonist arm of biased-ligand search | Melanocortin receptor 4 (Homo sapiens), P32245 | activation, % at 8.9 µM | U2OS MC4R beta-arrestin complementation; percent of melanotan II response, DMSO zero | AID 540308, 2011 | hit rate 0.98% among 360,000;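 active means activation above a per-plate cutoff, the mean activation of sample wells on that plate plus 3 SD, cut at about 8% in these data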
MC4R antagonist = MC4R antagonists of cAMP signaling, primary screen, cell-based, TR-FRET, antagonist arm of biased-ligand search; inhibition, % at 6.5 µM; MC4R-expressing cells, MTII-stimulated cAMP, LANCE TR-FRET; hit rate 0.48% among 360,000;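 active means inhibition above its plate's cutoff, the mean of tested wells on that plate plus 3 SD, cut at about 29% in these data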;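 further: 0% = Melanotan II alone and 100% = Melanotan II plus saturating MCL0020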
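system = U2OS cells with stable human MC4R expression | also added = Melanotan II challenge after compound preincubation | dosing = one concentration, 6.5 µM nominal | incubation = compound 30 min, challenge 1 h, detection 1 h | measured by = TR-FRET with Eu-cAMP and labeled anti-cAMP, 671 nm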
Yeast UUG start = modulators of yeast start codon fidelity, primary screen, whole organism, S. cerevisiae, single point, plate reader | AID 602363, 2012 | actives 0.13% (n = 350,000) | activity score, % at 18.7 µM | S. cerevisiae UUG-firefly luciferase reporter, luminescence/redox ratio;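 active means replicate mean at a twofold rise or more, about +100% in these data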;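 further: firefly luciferase made from a UUG start codon reports start codon fidelity; reporter light over untreated wells divided by growth signal over untreated wells; some hits fall short of that in this replicate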
cAMP nonselect = nonselective cAMP signaling inhibitors, parental cells, counter-screen for MC4R biased antagonist project, cell-based, TR-FRET, U2OS, forskolin, triplicate. shares compounds with MC4R antagonist. LANCE TR-FRET. inhibition, % at 6.5 µM. hit rate 26% among 1,600. AID 602193, 2012;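 active means mean inhibition over triplicates above the low-control well mean plus 3 SD, set per campaign, cut at about 13% in these data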;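 further: signal is single emission at 671 nm which falls as cellular cAMP rises; 0% = forskolin-stimulated wells and 100% = buffer without forskolin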
MC4R antag conf = MC4R cAMP antagonists, retest, confirmation, cell-based, TR-FRET | shares compounds with MC4R antagonist | MC4R-expressing cells, MTII-stimulated cAMP | inhibition, % at 6.5 µM | hit rate 27% among 1,600; in the data active means inhibition above about 29%;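 further: 0% = agonist stimulated wells alone and 100% = agonist stimulated wells plus saturating reference antagonist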
* hit, by the source's call. Rows were chosen to be rich in hits. Some 4.2% of all compounds tested hit in one or more screens of this group.

Chains of the proteins cited; added tags and fusions are not shown.
Melanocortin receptor 4 (Homo sapiens), P32245, UniProt P32245, whole entry, looked up: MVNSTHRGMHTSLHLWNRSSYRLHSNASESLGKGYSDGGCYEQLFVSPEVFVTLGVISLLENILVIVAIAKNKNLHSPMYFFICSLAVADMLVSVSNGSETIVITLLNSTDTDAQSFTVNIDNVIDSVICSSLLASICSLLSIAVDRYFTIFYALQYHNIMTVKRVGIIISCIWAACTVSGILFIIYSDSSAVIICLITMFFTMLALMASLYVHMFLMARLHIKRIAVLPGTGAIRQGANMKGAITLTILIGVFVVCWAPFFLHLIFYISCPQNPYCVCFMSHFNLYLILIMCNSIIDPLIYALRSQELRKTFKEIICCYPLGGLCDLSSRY

O=C(Cn1ncc(Cl)c(Cl)c1=O)N1CCN(Cc2ccccc2)CC1 was read as NALP1 inh 15, MC4R ag barr 0, MC4R antagonist 29*, cAMP nonselect 26* and MC4R antag conf 40*.
For C[C@H]1CCCCO[C@H](CN(C)C(=O)C2CCCCC2)[C@@H](C)CN([C@@H](C)CO)C(=O)c2cc(NC(=O)CCCN(C)C)ccc2O1 the results were Yeast UUG start 15.
For Cc1ccc(C)c(S(=O)(=O)NCC(=O)OCC(=O)Nc2sccc2C(N)=O)c1 the results were MC4R ag barr -1, MC4R antagonist 49*, Yeast UUG start -7, cAMP nonselect 13* and MC4R antag conf 33*.
Screening COc1cc(CC(=O)OCC(=O)Nc2sccc2C(N)=O)cc(OC)c1OC returned ALR H2O2 inh 13, NALP1 inh 17, HDAC3 inhib -5, MC4R ag barr -1, MC4R antagonist 9 and Yeast UUG start -3.
Screening COCCOC(=O)N1C(=O)[C@@]2(c3ccccc31)[C@H](c1ccccc1OCCO)N1[C@H](c3ccccc3)[C@H](c3ccccc3)OC(=O)[C@H]1[C@@H]2C(=O)N1CCCCCCC1 returned Yeast UUG start -15.
`O=C1C(SCCO)=C(SCCO)C(=O)c2ccccc21` gave ALR H2O2 inh -26, HDAC3 inhib 3, MC4R ag barr -4, MC4R antagonist 97*, Yeast UUG start -42, cAMP nonselect 102* and MC4R antag conf 143*.
For Cc1noc(C)c1S(=O)(=O)Nc1ccc2c(c1)CC(=O)N([C@H](C)CO)C[C@H](C)[C@@H](CN(C)S(=O)(=O)c1cccs1)O2 the results were Yeast UUG start 13.
`N#Cc1cc2c(nc1SCC(=O)Nc1nccs1)CCCCC2` gave ALR H2O2 inh -7, NALP1 inh 16, HDAC3 inhib 0, MC4R ag barr 0, MC4R antagonist 39*, Yeast UUG start -7, cAMP nonselect 12 and MC4R antag conf 19.
`COc1cccc(-n2c(C)cc(/C=C3/C(=N)N4C(=NC3=O)SN=C4S(C)(=O)=O)c2C)c1` gave ALR H2O2 inh 97*, NALP1 inh 4, HDAC3 inhib 12, MC4R ag barr 0, MC4R antagonist 29*, Yeast UUG start -4, cAMP nonselect -7 and MC4R antag conf -26.
CC1=NN2C(=N)/C(=C\c3cc(C)n(-c4cccc(C)c4)c3C)C(=O)N=C2S1 was read as ALR H2O2 inh 4, NALP1 inh -26, HDAC3 inhib -1, MC4R ag barr 0, MC4R antagonist 4 and Yeast UUG start 2.
`N#Cc1c(SC(C(=O)O)c2ccccc2)nc2c(c1-c1cccs1)CCCC2` (stereo not drawn) gave NALP1 inh -6, HDAC3 inhib -5, MC4R ag barr -1, MC4R antagonist 31*, Yeast UUG start -2, cAMP nonselect 18* and MC4R antag conf 27.
Screening COc1ccc(NC(=O)N2CCCCN3[C@H](CO)[C@@H](c4ccc(C5=CCCCC5)cc4)[C@H]3C2)cc1 returned Yeast UUG start 13.
For O=C(N[C@H]1CC[C@H](CCNC(=O)C2CCCC2)O[C@H]1CO)c1ccccn1 the results were Yeast UUG start 5.
Screening O=C(CSc1nc2cc(Cl)ccc2s1)N1CCN(C(=O)c2ccco2)CC1 returned ALR H2O2 inh -12, NALP1 inh 45, HDAC3 inhib 13, MC4R ag barr -2 and MC4R antagonist -3.
For O=C(CSc1c2c(nc3ccc(Cl)cc13)CCCC2)N1CCN(C(=O)c2ccco2)CC1 the results were MC4R ag barr -2, MC4R antagonist 41*, cAMP nonselect -10 and MC4R antag conf 21.
For CC1CCC/C(=N\NS(=O)(=O)c2ccccc2)C1 (stereo not drawn) the results were NALP1 inh 6, MC4R ag barr 2, MC4R antagonist 37*, cAMP nonselect -1 and MC4R antag conf -1.
CC1CCC/C(=N\NC(=O)Nc2ccccc2)C1 (stereo not drawn) was read as ALR H2O2 inh -1, NALP1 inh 5, HDAC3 inhib 2, MC4R ag barr -1, MC4R antagonist 23 and Yeast UUG start -12.
c1ccc(-c2nc3c([nH]2)CCc2nonc2-3)cc1 was read as ALR H2O2 inh -4, NALP1 inh -3, HDAC3 inhib 0, MC4R ag barr -2, MC4R antagonist 29*, Yeast UUG start -12, cAMP nonselect 1 and MC4R antag conf -3.
`c1coc(-c2nc3c([nH]2)CCc2nonc2-3)c1` gave ALR H2O2 inh 2, NALP1 inh 5, HDAC3 inhib 5, MC4R ag barr 0, MC4R antagonist 8 and Yeast UUG start -19.
For CCC(=O)N(C)C[C@@H]1Oc2cc(-c3ccccc3)ccc2S(=O)(=O)N([C@@H](C)CO)C[C@@H]1C the results were Yeast UUG start 25.
Screening CC(C)c1ccc(OCC(=O)NC(=S)Nc2ccc3c4c(cccc24)CC3)cc1 returned ALR H2O2 inh -15, NALP1 inh 2, HDAC3 inhib -11, MC4R ag barr 0, MC4R antagonist 38*, Yeast UUG start -16, cAMP nonselect 20* and MC4R antag conf 37*.
CNC(=O)C(C)c1ncc(C(F)(F)F)cc1Cl (stereo not drawn) was read as ALR H2O2 inh 5, NALP1 inh 15, HDAC3 inhib -1, MC4R ag barr 1, MC4R antagonist 31*, cAMP nonselect 1 and MC4R antag conf -8.
For CO[C@@H]1CN(C)C(=O)c2cc(NC(=O)NC3CCCCC3)ccc2OC[C@H](C)N(C)C[C@H]1C the results were Yeast UUG start -10.
CCOc1ccccc1N(C(=O)c1snc(C(N)=O)c1N)C(C(=O)NCc1ccccc1)c1ccc(O)cc1 (stereo not drawn) was read as NALP1 inh 13, MC4R ag barr -2, MC4R antagonist 31*, Yeast UUG start -7, cAMP nonselect 2 and MC4R antag conf 5.

Gathered by group: the entries above containing an NH in an aromatic ring
c1ccc(-c2nc3c([nH]2)CCc2nonc2-3)cc1 was read as ALR H2O2 inh -4, NALP1 inh -3, HDAC3 inhib 0, MC4R ag barr -2, MC4R antagonist 29*, Yeast UUG start -12, cAMP nonselect 1 and MC4R antag conf -3.
`c1coc(-c2nc3c([nH]2)CCc2nonc2-3)c1` gave ALR H2O2 inh 2, NALP1 inh 5, HDAC3 inhib 5, MC4R ag barr 0, MC4R antagonist 8 and Yeast UUG start -19.
